The assay concerns the target epidermal growth factor receptor (EGFR) (human (endogenous in SW1990)) (UniProt P00533). As to the kind of experiment: FRAP (fluorescence recovery after photobleaching) on live cells; SW1990 cells, treated or not with 1,3,4-O-Bu3ManNAc for 48 h (serum starved for the last 24 h); 2.0 ug/mL Alexa Fluor 488-conjugated EGF kept unbound in the bath; 37 C; Live Cell Imaging Solution with 1.0% BSA and 20 mM glucose; 3.0 by 1.0 um membrane region bleached; one phase exponential association fit gives t0.5.

Regarding Alexa Fluor 488-conjugated EGF (ligand), the t0.5 of fluorescence recovery, EGF in the bath (1,3,4-O-Bu3ManNAc-treated cells) worked out at 7.5 s and the t0.5 of fluorescence recovery, EGF in the bath (control cells) amounted to 8.37 s.

Source of the values: article PMC5341816.
